# Test results reported in patent publication EP4847016A1, “PHARMACEUTICAL COMPOSITION, BLEPHAROSPASM TREATMENT AGENT, HYPERSENSITIVITY OR DYSTONIA TREATMENT AGENT, AND SYMPTOM MODEL MOUSE” (dated 2026).
# Tests used:
# blepharospasm patients = test: Ophthalmic instillation in blepharospasm patients; subjective symptoms evaluated by visual analog scale (VAS) and multiple questionnaires
# Method: A 5-fold diluted solution was adjusted from a commercially approved tramadol injection solution (Tramadol Hydrochloride OD Tablets 25 mg "KO", Kotobuki Pharmaceutical Co., Ltd.), the diluted solution was subjected to suction filtration sterilization, dispensed and filled into ophthalmic solution bottles, and stored in a refrigerator. As quality testing, samples for quality inspection were extracted, tests were performed for drug assay, properties, pH, osmotic pressure ratio, sterility, insoluble foreign matter, and fine particles, and the pharmaceutical composition was transported and stored in the form of an eye drop as a pharmaceutical composition containing 1% tramadol, and was used in the following administration tests.
# Ophthalmic instillation with the eye drops containing the 1% tramadol was administered to nine blepharospasm patients four times per day for one month. Subjective symptoms before and after administration were evaluated using the visual analog scale (VAS) and multiple questionnaires.
# [1] = test system: mice not subjected to stress; test: Number of blinks and general observation in mice not subjected to stress; conditions: ophthalmic instillation once per day for 3 days, n=4 eyes each, versus physiological saline group, data not shown
# From the text: When stress (risk factors) by the platform and air blowing overlap in mice, it has been confirmed by a preliminary separate test that a blepharospasm-like phenotype appears compared with mice not subjected to these stresses (not shown).
# symptom model mice = test: Number of blinks in symptom model mice stressed by platform and air blowing; conditions: C57BL/6JJcl 38-week-old female mice, stress 4 hours per day for approximately 3 weeks; eye drops stopped on day 18, blinks measured for 1 minute on day 21; versus physiological saline; FIG. 1
# Method: A symptom model mouse reproducing symptoms corresponding to blepharospasm was produced, the eye drops containing the tramadol were administered to the symptom model mouse, and the effect of the pharmaceutical composition due to alleviation of symptoms was verified.
# Six C57BL/6JJcl, 38-week-old female mice were subjected to stress by a platform and air blowing, thereby producing symptom model mice in which symptoms corresponding to blepharospasm appeared.
# An unstable suspension bridge platform made of a rod-shaped member suspended by a string was installed above a cage filled with water. The stress by the platform and air blowing was applied by placing the mice on the platform and blowing air from the front and rear directions using blowers (fans).
# The stress was applied for 4 hours per day (excluding Saturdays and Sundays), and was continued for approximately 3 weeks.
# In parallel with the stress environment, the eye drops containing tramadol similar to those of Test Example 1 were administered to three of these symptom model mice. The group of the other three mice was treated with physiological saline only. On day 18, administration of tramadol was stopped, and on day 21, the number of blinks was measured.
# The number of blinks was measured by restraining awake mice and measuring the number of blinks for 1 minute.
# [2] = average for the nine cases, baseline before treatment
# [3] = nine blepharospasm patients, ophthalmic instillation four times per day for one month, number of cases
structure (smiles),measurement,setting,value
COc1cccc(C2(O)CCCCC2CN(C)C)c1 (centres unmarked),sensory hypersensitivity VAS after treatment,"blepharospasm patients; average for the nine cases, after four times per day for one month, p = 0.003 vs before treatment",36.9 ± 21.4
same,motor symptoms total score after treatment,"blepharospasm patients; average for the nine cases, after four times per day for one month, p = 0.02 vs before treatment",1.8 ± 1.2
same,motor symptoms total score before treatment,blepharospasm patients; [2],3.4 ± 1.4
same,sensory hypersensitivity VAS before treatment,blepharospasm patients; [2],56.9 ± 18.9
same,both sensory hypersensitivity and motor symptoms improved,blepharospasm patients; [3],five of nine cases
same,neither sensory hypersensitivity nor motor symptoms improved,blepharospasm patients; [3],one of nine cases
same,only motor symptoms improved,blepharospasm patients; [3],one of nine cases
same,only sensory hypersensitivity improved,blepharospasm patients; [3],two of nine cases
same,number of blinks,[1],no significant difference
same,other difference in the eyes or the whole body,[1],no other clear difference
same,number of blinks,symptom model mice,significantly decreased
